The source made the active and inactive calls. No cut-off for these calls is given here.
System: PBMC
Assay: Induction of IL-2 production in human PBMC cells upto 50 uM preincubated for 30 mins followed by T-cell activation and measured after 24 hrs
Assay type: functional, cell-based
Settings: time 24.5 hrs

COc1ccc2c(c1CC(=O)O)Oc1c(ccc(OC)c1CC(=O)N1[C@H](c3cc([N+](=O)[O-])cc(OC)c3OCC(=O)O)N(C)C(=O)[C@@H]1C)C2(C)C
Activity: inactive

— ChEMBL document CHEMBL5532740, “Optimization of a Novel DEL Hit That Binds in the Cbl-b SH2 Domain and Blocks Substrate Binding” (ACS Med Chem Lett, 2024)
